## Yeast mating assay 2: variants of the scFv Ab-95

The target is the same throughout: PDVDLGDISGINAS, from the HR2 region of SARS-CoV-2 spike.

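The starting antibody came from a phage panning campaign against this peptide. In library AAYL52, one, two or three CDR residues were substituted; doubles and triples were drawn at random. The scFvs were displayed on barcoded MATa yeast, the peptide on MATalpha yeast. After mating in shaken culture at 30 °C for 16 h, diploids were selected and their barcode pairs sequenced. Scores were corrected for input abundance and mapped to Kd with protein pairs of known affinity run in the same pool. Mating was done three times.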

The variants keep the heavy chain, the linker and the frameworks of Ab-95 (scFv order VH, three GGGGS repeats, VL).
VH: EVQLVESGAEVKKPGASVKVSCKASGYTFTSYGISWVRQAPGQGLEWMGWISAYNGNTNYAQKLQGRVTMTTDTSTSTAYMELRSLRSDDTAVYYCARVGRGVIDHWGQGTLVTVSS
VL: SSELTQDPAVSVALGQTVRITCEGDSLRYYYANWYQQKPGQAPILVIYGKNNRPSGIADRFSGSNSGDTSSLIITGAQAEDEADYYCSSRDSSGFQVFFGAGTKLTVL

The parent's light chain CDRs are EGDSLRYYYAN, GKNNRPS, SSRDSSGFQVF; each variant's own CDRs replace them letter for letter.
This list gathers variants with a substitution at S92 (VL, numbered from residue 1).
Values are log10 of the apparent Kd in nM; lower means stronger binding.
Replicates are averaged; those with no signal do not enter the mean.
"not detected" marks a missing value. The strain was present, yet no cells mated with the target were sequenced in any replicate, which points to weak or no binding.
Parent in this assay: reference entry 2.31, copy in this library 2.25.
Nonspecific signal, from three strains lacking the peptide, appeared in 28% of pairings of library AAYL52, centred on 3.91 (5% of these signals below 2.90); values are not corrected for it.

| CDR-L1 | CDR-L2 | CDR-L3 | mean log10 Kd (nM) | detected |
|---|---|---|---|---|
| EGDSLRYYYAN | GKNNRPS | SSRDPCGFQTF | not detected | 0 of 3 |
| EGDSLRYYYAN | GKNNRPS | SSRDISAFQVF | 2.37 | 3 of 3 |
| EGDSLRYYYAN | GKNNRPS | SSFDCIGFQVF | 1.80 | 3 of 3 |
| EGDSVRYYYAN | GKENRPS | SSRDHSGFQVF | 3.44 | 3 of 3 |
| EGRSLRYYYAN | GKNNRPS | SSRDDSGFSVF | 2.69 | 3 of 3 |
| EGDSLRYYYAN | GKNNRPS | SSRDDSGFQVF | 1.90 | 3 of 3 |
| EGDSLRYYYAN | GKNNRRS | SSKDTSGFQVF | 5.57 | 1 of 3 |
| EGDDLRYYYAN | IKNNRPS | SSRDVSGFQVF | 4.06 | 1 of 3 |
| EGDSLRYYYAN | GKNNAPS | SSRDNSGHQVF | not detected | 0 of 3 |
| EGRSLRYYYAN | GKNNRPS | SMRDTSGFQVF | 3.25 | 3 of 3 |
| EGDSLRYYYAN | GKMNRPS | SSRDYSGFQVF | 3.67 | 3 of 3 |
| EMDSLRYYYAN | GKNNRPS | SSRDKAGFQVF | 2.41 | 3 of 3 |
| EGDSLRYYYAN | GKNNRPS | SSRDQSGFEVF | 2.46 | 3 of 3 |
| EGDSLRYYYAN | GKNIRTS | SSRDYSGFQVF | 3.08 | 3 of 3 |
| EGDSLRYYYAN | GKNNRPS | ISRDPSGFWVF | 3.02 | 3 of 3 |
| EGDSLRYYYAN | GKNNRPS | SSRDKSGFQVM | 2.00 | 3 of 3 |
| EGDSLRYYYAN | GKNNRPS | SSRDVSGFQVF | 2.12 | 3 of 3 |
| EGDTLRYRYAN | GKNNRPS | SSRDLSGFQVF | 1.74 | 3 of 3 |
| EQDSLRYYYAN | GKNNRPS | SSRDASGFQVF | 4.29 | 3 of 3 |
| VGDSLRYYYAN | GKNNRPS | FSRDYSGFQVF | 3.06 | 3 of 3 |
| EGDSMRYYYAN | GKNIRPS | SSRDASGFQVF | 2.95 | 3 of 3 |
| EGDSLRYYYAN | GKDNRPS | SSRDGSGFPVF | 3.09 | 3 of 3 |
| EGDSLRYYYCN | GDNNRPS | SSRDNSGFQVF | 2.53 | 3 of 3 |
| EGDSLRYYYAN | GKNNRPS | SSVFKSGFQVF | 2.80 | 3 of 3 |
| EGDSLRYYYAN | GKHNRPS | PSRDQSGFQVF | 4.57 | 1 of 3 |
| EGDSLRYYYAY | GKNNRPP | SSRDKSGFQVF | 3.75 | 1 of 3 |
| EGDSLRYYYAN | GKNNRPS | SSLDRSGFQVA | 3.94 | 2 of 3 |
| EGCSLRYYYAN | GKNNRPS | SSRDESGFQSF | not detected | 0 of 3 |
| EGDSLRYYCAN | GKNWRPS | SSRDWSGFQVF | 2.99 | 3 of 3 |
| EGDSLRYYYAN | GDNNPPS | SSRDASGFQVF | 3.11 | 3 of 3 |
| EGDSLRYYYAN | GKNMRPS | SDRDQSGFQVF | 2.56 | 3 of 3 |
| EGRSLRYYYAN | GKNNRPS | SSRRPSGFQVF | 2.60 | 3 of 3 |
| YGDLLRYYYAN | GKNNRPS | SSRDPSGFQVF | not detected | 0 of 3 |
| EGDSLRYYYAN | GKNNRPS | SSRKISGRQVF | 4.93 | 1 of 3 |
| EGDSLFYYYAN | GKWNRPS | SSRDNSGFQVF | 4.24 | 2 of 3 |
| EGDSLDYYYAN | TKNNRPS | SSRDCSGFQVF | 3.74 | 2 of 3 |
| EGDSLRYYYVN | GKNNRPS | SSRDESGFPVF | 3.78 | 3 of 3 |
| EGTSLRYYYAN | GKNNRPR | SSRDWSGFQVF | 3.64 | 2 of 3 |
| EGYSLRYYYAN | GKPNRPS | SSRDHSGFQVF | 4.22 | 1 of 3 |
| EPDSLRYYAAN | GKNNRPS | SSRDDSGFQVF | 3.69 | 2 of 3 |
| EGDSLRYYYAN | GKWNRPS | SSRDMSGGQVF | 4.37 | 1 of 3 |
| HGDSLRYYYAN | RKNNRPS | SSRDCSGFQVF | 3.38 | 3 of 3 |
| EGDSLRYYYAN | GKNNRPS | STRDGSGFQVK | 3.10 | 1 of 3 |
| EGDSLRYYYAF | GKNNRPS | SSRDQSGFKVF | not detected | 0 of 3 |
| EGDSLPDYYAN | GKNNRPS | SSRDMSGFQVF | 1.32 | 3 of 3 |
| EGDSLRGYYAN | GKNNRPS | RSRDRSGFQVF | 1.71 | 3 of 3 |
| EGDSLRYYYAN | GKNNRPG | SSRDHSKFQVF | 3.60 | 3 of 3 |
| EGDSLRYYYAN | GKNNHPS | SSKDASGFQVF | 3.11 | 3 of 3 |
| EGDYLRYYYAN | GKNNRPS | SSRDASGFQVS | 2.65 | 3 of 3 |
| EGDFLRYYYAN | SKNNRPS | SSRDGSGFQVF | 2.52 | 3 of 3 |
| EGDSLRYYYAN | GRNNRPS | SSRDHEGFQVF | 2.51 | 3 of 3 |
| EGDSLGYYNAN | GKNNRPS | SSRDNSGFQVF | 1.36 | 3 of 3 |
| EGDSLRYYYAN | GKNNRPS | SSRDDSGFQRF | 2.96 | 2 of 3 |
| EGTSLRYYYAN | GKNNRPS | SSRFVSGFQVF | 4.44 | 2 of 3 |
| EGDSLRYYYAN | GKNNRPS | KSRDISGFQVF | not detected | 0 of 3 |
| EGDSLRYYGAN | GKNNGPS | SSRDLSGFQVF | 4.41 | 3 of 3 |
| EGDSLRYYYAI | GKNNRPS | SSRDESGFQPF | 4.29 | 2 of 3 |
| EFDSLMYYYAN | GKNNRPS | SSRDHSGFQVF | 2.51 | 3 of 3 |
| CLDSLRYYYAN | GKNNRPS | SSRDTSGFQVF | not detected | 0 of 3 |

From the list, the first 7 with no signal in any replicate:

CDR-L1	CDR-L2	CDR-L3	mean log10 Kd (nM)	detected
EGDSLRYYYAN	GKNNRPS	SSRDPCGFQTF	not detected	0 of 3
EGDSLRYYYAN	GKNNAPS	SSRDNSGHQVF	not detected	0 of 3
EGCSLRYYYAN	GKNNRPS	SSRDESGFQSF	not detected	0 of 3
YGDLLRYYYAN	GKNNRPS	SSRDPSGFQVF	not detected	0 of 3
EGDSLRYYYAF	GKNNRPS	SSRDQSGFKVF	not detected	0 of 3
EGDSLRYYYAN	GKNNRPS	KSRDISGFQVF	not detected	0 of 3
CLDSLRYYYAN	GKNNRPS	SSRDTSGFQVF	not detected	0 of 3

Data: MIT Lincoln Laboratory AlphaSeq set, Engelhart et al. 2022, doi:10.1038/s41597-022-01779-4, as distributed in FLAb.